From PubChem BioAssay (NCI)
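A five-concentration, 48-hour dose response in 96-well plates underlies each endpoint, interpolated linearly between surrounding concentrations. At the GI50, growth is halved. Definition used: TGI = concentration required for complete inhibition of growth.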

Experiments:
Assay in all cases: growth of human tumour cells (NCI), 48 h
786-0 renal = tested on: 786-0 renal
RPMI-8226 leukemia = tested on: RPMI-8226 leukemia
MDA-MB-231 breast = tested on: MDA-MB-231 breast
HCT-116 colon = tested on: HCT-116 colon
HOP-92 NSCLC = tested on: HOP-92 NSCLC
NCI-H226 lung = tested on: NCI-H226 lung
NCI-H522 lung = tested on: NCI-H522 lung
HOP-62 NSCLC = tested on: HOP-62 NSCLC
NCI/ADR-RES ovarian = tested on: NCI/ADR-RES ovarian
MCF7 breast = tested on: MCF7 breast
MOLT-4 leukemia = tested on: MOLT-4 leukemia
MDA-MB-435 = tested on: MDA-MB-435
RXF 393 renal = tested on: RXF 393 renal
COLO 205 colon = tested on: COLO 205 colon
DU-145 prostate = tested on: DU-145 prostate
IGROV1 ovarian = tested on: IGROV1 ovarian
HCT-15 colon = tested on: HCT-15 colon
OVCAR-8 ovarian = tested on: OVCAR-8 ovarian
KM12 colon = tested on: KM12 colon
MALME-3M melanoma = tested on: MALME-3M melanoma
HCC-2998 colon = tested on: HCC-2998 colon
SK-MEL-2 melanoma = tested on: SK-MEL-2 melanoma
T-47D breast = tested on: T-47D breast
SK-MEL-5 melanoma = tested on: SK-MEL-5 melanoma
UO-31 renal = tested on: UO-31 renal
SN12C renal = tested on: SN12C renal
SF-268 CNS = tested on: SF-268 CNS
A549 NSCLC = tested on: A549 NSCLC
ACHN renal = tested on: ACHN renal
NCI-H23 lung = tested on: NCI-H23 lung
BT-549 breast = tested on: BT-549 breast
OVCAR-4 ovarian = tested on: OVCAR-4 ovarian
U251 CNS = tested on: U251 CNS
SF-295 CNS = tested on: SF-295 CNS
UACC-62 melanoma = tested on: UACC-62 melanoma
OVCAR-3 ovarian = tested on: OVCAR-3 ovarian
CAKI-1 renal = tested on: CAKI-1 renal
NCI-H460 lung = tested on: NCI-H460 lung
SF-539 CNS = tested on: SF-539 CNS
UACC-257 melanoma = tested on: UACC-257 melanoma
HL-60(TB) leukemia = tested on: HL-60(TB) leukemia
SNB-19 CNS = tested on: SNB-19 CNS
SK-MEL-28 melanoma = tested on: SK-MEL-28 melanoma
SR leukemia = tested on: SR leukemia
SK-OV-3 ovarian = tested on: SK-OV-3 ovarian
CCRF-CEM leukemia = tested on: CCRF-CEM leukemia
A498 renal = tested on: A498 renal
NCI-H322M lung = tested on: NCI-H322M lung
SW-620 colon = tested on: SW-620 colon
PC-3 prostate = tested on: PC-3 prostate
HT29 colon = tested on: HT29 colon
SNB-75 CNS = tested on: SNB-75 CNS
OVCAR-5 ovarian = tested on: OVCAR-5 ovarian
M14 melanoma = tested on: M14 melanoma
LOX IMVI melanoma = tested on: LOX IMVI melanoma

COc1cccc([As]=O)c1 (stereo not given)
GI50 (786-0 renal): 155 nM | TGI (786-0 renal): 297 nM | GI50 (RPMI-8226 leukemia): 164 nM | TGI (RPMI-8226 leukemia): 441 nM | GI50 (MDA-MB-231 breast): 160 nM | TGI (MDA-MB-231 breast): 447 nM | GI50 (HCT-116 colon): 171 nM | TGI (HCT-116 colon): 338 nM | GI50 (HOP-92 NSCLC): 86.7 nM | TGI (HOP-92 NSCLC): 489 nM | GI50 (NCI-H226 lung): 199 nM | TGI (NCI-H226 lung): 508 nM | GI50 (NCI-H522 lung): 92.1 nM | TGI (NCI-H522 lung): 248 nM | GI50 (HOP-62 NSCLC): 205 nM | TGI (HOP-62 NSCLC): 425 nM | GI50 (NCI/ADR-RES ovarian): 237 nM | TGI (NCI/ADR-RES ovarian): 643 nM | GI50 (MCF7 breast): 124 nM | TGI (MCF7 breast): 266 nM | GI50 (MOLT-4 leukemia): 175 nM | TGI (MOLT-4 leukemia): 513 nM | GI50 (MDA-MB-435): 168 nM | TGI (MDA-MB-435): 339 nM | GI50 (RXF 393 renal): 126 nM | TGI (RXF 393 renal): 275 nM | GI50 (COLO 205 colon): 168 nM | TGI (COLO 205 colon): 324 nM | GI50 (DU-145 prostate): 312 nM | TGI (DU-145 prostate): 1080 nM | GI50 (IGROV1 ovarian): 77.8 nM | TGI (IGROV1 ovarian): 233 nM | GI50 (HCT-15 colon): 131 nM | TGI (HCT-15 colon): 287 nM | GI50 (OVCAR-8 ovarian): 237 nM | TGI (OVCAR-8 ovarian): 705 nM | GI50 (KM12 colon): 347 nM | TGI (KM12 colon): 882 nM | GI50 (MALME-3M melanoma): 95.3 nM | TGI (MALME-3M melanoma): 307 nM | GI50 (HCC-2998 colon): 300 nM | TGI (HCC-2998 colon): 793 nM | GI50 (SK-MEL-2 melanoma): 151 nM | TGI (SK-MEL-2 melanoma): 346 nM | GI50 (T-47D breast): 82.2 nM | TGI (T-47D breast): 233 nM | GI50 (SK-MEL-5 melanoma): 181 nM | TGI (SK-MEL-5 melanoma): 380 nM | GI50 (UO-31 renal): 116 nM | TGI (UO-31 renal): 322 nM | GI50 (SN12C renal): 210 nM | TGI (SN12C renal): 730 nM | GI50 (SF-268 CNS): 210 nM | TGI (SF-268 CNS): 714 nM | GI50 (A549 NSCLC): 263 nM | TGI (A549 NSCLC): 771 nM | GI50 (ACHN renal): 177 nM | TGI (ACHN renal): 338 nM | GI50 (NCI-H23 lung): 162 nM | TGI (NCI-H23 lung): 369 nM | GI50 (BT-549 breast): 156 nM | TGI (BT-549 breast): 314 nM | GI50 (OVCAR-4 ovarian): 145 nM | TGI (OVCAR-4 ovarian): 311 nM | GI50 (U251 CNS): 133 nM | TGI (U251 CNS): 267 nM | GI50 (SF-295 CNS): 583 nM | TGI (SF-295 CNS): 1620 nM | GI50 (UACC-62 melanoma): 189 nM | TGI (UACC-62 melanoma): 497 nM | GI50 (OVCAR-3 ovarian): 137 nM | TGI (OVCAR-3 ovarian): 278 nM | GI50 (CAKI-1 renal): 290 nM | TGI (CAKI-1 renal): 1080 nM | GI50 (NCI-H460 lung): 432 nM | TGI (NCI-H460 lung): 1420 nM | GI50 (SF-539 CNS): 162 nM | TGI (SF-539 CNS): 366 nM | GI50 (UACC-257 melanoma): 203 nM | TGI (UACC-257 melanoma): 584 nM | GI50 (HL-60(TB) leukemia): 38.4 nM | TGI (HL-60(TB) leukemia): 216 nM | GI50 (SNB-19 CNS): 466 nM | TGI (SNB-19 CNS): 1510 nM | GI50 (SK-MEL-28 melanoma): 162 nM | TGI (SK-MEL-28 melanoma): 309 nM | GI50 (SR leukemia): 86.2 nM | TGI (SR leukemia): 340 nM | GI50 (SK-OV-3 ovarian): 388 nM | TGI (SK-OV-3 ovarian): 1250 nM | GI50 (CCRF-CEM leukemia): 116 nM | TGI (CCRF-CEM leukemia): 388 nM | GI50 (A498 renal): 118 nM | TGI (A498 renal): 447 nM | GI50 (NCI-H322M lung): 220 nM | TGI (NCI-H322M lung): 525 nM | GI50 (SW-620 colon): 121 nM | TGI (SW-620 colon): 285 nM | GI50 (PC-3 prostate): 183 nM | TGI (PC-3 prostate): 627 nM | GI50 (HT29 colon): 252 nM | TGI (HT29 colon): 676 nM | GI50 (SNB-75 CNS): 117 nM | TGI (SNB-75 CNS): 317 nM | GI50 (OVCAR-5 ovarian): 210 nM | TGI (OVCAR-5 ovarian): 507 nM | GI50 (M14 melanoma): 183 nM | TGI (M14 melanoma): 425 nM | GI50 (LOX IMVI melanoma): 58.7 nM | TGI (LOX IMVI melanoma): 217 nM
